Values quoted from earlier work in patent US11576865B2, “Sustained-release dosage forms of ruxolitinib” (Incyte Corporation, priority 2012, dated 2023).

Tested on: patients with intermediate-2 or high risk myelofibrosis
Settings: COMFORT-I, ruxolitinib vs placebo, week 24; 95% CI 6.9 to 33.7; cited from earlier work

N#CC[C@H](C1CCCC1)n1cc(-c2ncnc3[nH]ccc23)cn1 [Ruxolitinib, (3R)-3-cyclopentyl-3-[4-(7H-pyrrolo[2,3-d]pyrimidin-4-yl)pyrazol-1-yl]propanenitrile]
odds ratio for reduction of 50% or more in the total symptom score: 15.3
